From patent publication US20240024251A1, “POLYSACCHARIDE ENCAPSULATED OXYGEN NANOBUBBLES” (THE BOARD OF TRUSTEES OF THE UNIVERSITY OF ILLINOIS, priority 2020, published 2024)

Test system: R-28 and ARPE-19 cell line
Experiment: Excipient toxicity studies, cell viability (MTT)
Conditions: R-28 and ARPE-19 cells, FIG. 6

D-a-tocopherol polyethylene glycol 1000 succinate [TPGS]
excipient concentration producing some toxic effect on cell viability: 0.04 to 0.045 mg
